{"source": "patent US4960770A", "about": "“2-alkyl thieno(triazolo)diazepine compounds and pharmaceutical uses thereof” (Yoshitomi Pharmaceutical Industries, Ltd., priority 1987, dated 1990)", "test_system": "PAF-induced lethal shock", "test": "Effect of PAF-induced lethal shock in mice", "format": "in vivo, male ICR mice", "settings": "1 hour before PAF 80 μg/kg i.v., 24 hours", "method": "The experiment was carried out according to the method of Young et al. described in Prostaglandins, vol. 30, p. 545 (1985). Groups of 9 to 15 male ICR mice (Charles River) weighing 25-30 g were used. 80 μg/kg of PAF (Serdary Research Labo.) solution was intravenously administered in a lateral tail vein 1 hour after the oral administration of test compound (0.1 ml/10 g). […] Results were given as number of survivors/number of employed animals and survival rates (%) in Table 4."}
{"smiles": "CCc1cc2c(s1)-n1c(C)nnc1CN=C2c1ccccc1Cl", "note": "[Etizolam, 6-(o-chlorophenyl)-8-ethyl-1-methyl-4H-s-triazolo[3,4-c]thieno[2,3-e][1,4]diazepine, reference compound]", "values": [{"measurement": "Number of Survivors/Number of Animals", "setting": "1 mg/kg p.o.", "value": "1/11"}, {"measurement": "Survival rate", "setting": "1 mg/kg p.o.", "value": 9.1, "unit": "%"}, {"measurement": "Number of Survivors/Number of Animals", "setting": "3 mg/kg p.o.", "value": "3/11"}, {"measurement": "Survival rate", "setting": "3 mg/kg p.o.", "value": 27.3, "unit": "%"}, {"measurement": "Number of Survivors/Number of Animals", "setting": "10 mg/kg p.o.", "value": "6/11"}, {"measurement": "Survival rate", "setting": "10 mg/kg p.o.", "value": 54.5, "unit": "%"}]}
